Patent US20250332139A1, “PS[…] AND THEIR USE FOR TREATING […] AND NE[…] DISORDERS” (Transcend Therapeutics, Inc., priority 2021, published 2025)

Assay: Excipient compatibility study
Format: physicochemical
Description: In this Example, the physical and chemical compatibility of methylone drug substance, 50 mg with various commonly used solid dosage form excipients, as well as methylone active pharmaceutical ingredient (API) alone, was analyzed. Analyses were conducted at t=0, 2, 4 and 8 weeks for appearance, assay, and related substances for samples stored in closed vials at 25° C./60% RH and 40° C./75% RH.
Excipient Compatibility Sample Mixtures: The excipients and API were dispensed individually by weight into 20 mL clear borosilicate (type I) glass vials to fill the appropriate weights as listed in Table 12. Table 12 lists mixtures of API with varied excipients and a stand-alone control sample of API alone. Each excipient mixture sample preparation was conducted using a clean spatula to mix the vial ingredients for 30-60 seconds. Each vial was properly labeled with the description and storage conditions. One vial was used for testing at the initial (t=0) time point. Three vials, closed, were placed at each storage condition to allow sampling at each time point and one vial, closed, was placed at each storage condition for overage.
Excipient Compatibility Sample Analysis: Each individual vial sampled at the requested time points was analyzed for the following parameters: (a) Appearance (Visual); Assay (HPLC); (c) Related Substances (HPLC).

In the case of CNC(C)C(=O)c1ccc2c(c1)OCO2 (stereo not drawn) [methylone, 3,4-methylenedioxy-N-methylcathinone], the “Assay (% Recovery)” value (2 Week 25° C./60% RH, closed vial) is reported as 99.7 % Recovery, the “Assay (% Recovery)” value (4 Week 25° C./60% RH, closed vial) is reported as 100.3 % Recovery and the “Assay (% Recovery)” value (4 Week 40° C./75% RH, closed vial) is reported as 99.6 % Recovery. The “Assay (% Recovery)” value (8 Week 25° C./60% RH, closed vial) was 98.2 % Recovery, the “Assay (% Recovery)” value (8 Week 40° C./75% RH, closed vial) was 100.3 % Recovery and the “Assay (% Recovery)” value (t = 0) was 100.6 % Recovery.
